Paper PMC9635817 (Frontiers in Nutrition, 2022)
This is a selection: effects in other tests are not listed, and their absence says nothing. Marks after values point to notes of the source that are not given here.

The chains behind the UniProt entries cited, without tags or fusion partners. Residues count along the entry.
UniProt O42275, 24-633 limits assumed: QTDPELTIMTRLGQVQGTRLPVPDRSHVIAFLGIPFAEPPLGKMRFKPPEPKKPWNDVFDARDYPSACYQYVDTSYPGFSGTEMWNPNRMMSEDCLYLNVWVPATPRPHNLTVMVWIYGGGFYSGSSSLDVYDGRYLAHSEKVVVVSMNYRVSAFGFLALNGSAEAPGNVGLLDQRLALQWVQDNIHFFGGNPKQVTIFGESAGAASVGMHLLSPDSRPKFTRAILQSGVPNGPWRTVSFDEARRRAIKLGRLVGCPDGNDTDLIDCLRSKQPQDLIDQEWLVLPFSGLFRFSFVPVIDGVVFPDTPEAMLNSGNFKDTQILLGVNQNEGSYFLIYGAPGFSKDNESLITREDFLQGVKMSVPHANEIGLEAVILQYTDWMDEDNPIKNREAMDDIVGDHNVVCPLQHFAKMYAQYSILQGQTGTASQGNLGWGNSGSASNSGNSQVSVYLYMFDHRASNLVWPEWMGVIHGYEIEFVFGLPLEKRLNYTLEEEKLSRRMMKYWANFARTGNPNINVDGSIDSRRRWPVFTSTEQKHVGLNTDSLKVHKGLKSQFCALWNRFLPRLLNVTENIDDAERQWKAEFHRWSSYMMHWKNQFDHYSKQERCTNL

Experiments:
[1] = target: T1, AChE (Electrophorus electricus, UniProt O42275); assay: Kinetics of AChE inhibition (Lineweaver-Burk)
[2] = target: T1, AChE; assay: Intrinsic fluorescence emission of AChE-peptide complex; conditions: peptide 1.56, 3.13, 6.25 μg/ml; excitation 280 nm

For `N=C(N)NCCC[C@H](NC(=O)[C@H](CO)NC(=O)[C@H](CCC(N)=O)NC(=O)[C@@H](N)CO)C(=O)N[C@@H](CO)C(=O)O`, the Km ([1]; peptide 0.05 mM) was 10 µM, the “Vmax (ΔA/min)” value ([1]; peptide 0.05 mM) was 6.20 ± 0.00^e ΔA/min and the Km ([1]; peptide 0.1 mM) was 10 µM. The “Effect on AChE fluorescence intensity (FI)” value [2] was “reduced the FI of the enzyme”.
